These results are taken from ChEMBL document CHEMBL2034878, “Chiral resolution, absolute configuration assignment and biological activity of racemic diarylpyrimidine CH(OH)-DAPY as potent nonnucleoside HIV-1 reverse transcriptase inhibitors” (Eur J Med Chem, 2012).

SMILES strings stand for the structures.

This assay has as its target Human immunodeficiency virus type 1 reverse transcriptase (Human immunodeficiency virus 1, UniProt Q72547). Briefly: Inhibition of HIV1 wildtype reverse transcriptase using poly(rA)/oligo(dT)15 as template by colometric streptavidin alkaline phosphate reporter assay. (In general: A reporter such as luciferase makes a cellular process visible.)

Turning to `Cc1cc(C#N)cc(C)c1Oc1nc(Nc2ccc(C#N)cc2)nc(N)c1Br` [ETRAVIRINE], the IC50 was found to be 0.98 µM.

One may read the IC50 as the concentration needed to halve the response being measured. Lower therefore signals greater potency in that assay.
